Experimental data reported in PubChem BioAssay AID868 (SRMLSC, 2007).
This is a selection; strong and weak results do not stand in their true shares. The source made the active and inactive calls.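 The calls were made as follows: active = inhibition above a set limit, 3 SD over mean compound inhibition (cut at about 8.4% in these data); inactive = the rest.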

Experiment: RAM signaling blockers in budding yeast – dse1pr::URA3 reporter, 5-FOA selection, primary screen (AID 868);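 also: 0% = DMSO-only wells with no growth and 100% = 10 µM 1-NA-PP1 full growth; inhibition rescues growth on 5-FOA so higher OD means more RAM inhibition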
Conditions: S. cerevisiae dse1pr::URA3 reporter, 5-FOA growth OD615, 2 d; at 50 µM; stronger effect = higher value; analog-sensitive cbk1-as2 kinase mutant strain

| SMILES | inhibition |
| --- | --- |
| Fc1ccccc1NC1CCN(Cc2ccccc2)CC1 | inactive: -0.13% |
| CN(C)c1ccc(C(=O)NCC2(N3CCCCC3)CCCCC2)cc1 | inactive: 0.62% |
| CCN1CCC(Nc2cccc(F)c2)CC1 | inactive: 0.4% |
| CC(C)(C)OC(=O)N1CCC(Nc2ccccc2)CC1 | inactive: 1.97% |
| CCOc1ncccc1C(=O)NCC1(N2CCOCC2)CCCCC1 | inactive: 0.11% |
| CCC(CO)(C(=O)OC1CN2CCC1CC2)c1ccccc1 (stereo not given) | inactive: -0.4% |
| COc1cc(OC)cc(C(=O)NCC2(N3CCOCC3)CCCCC2)c1 | inactive: 0.63% |
| COc1ccc(C(=O)NCC2(N3CCOCC3)CCCCC2)cc1OC | inactive: 1.32% |
| O=C(OC1CN2CCC1CC2)C1c2ccccc2C=Cc2ccccc21 (stereo not given) | inactive: 1.17% |
| N/C(=N\O)c1c(N)no[n+]1[O-] | inactive: -0.27% |
| N#Cc1ccc(C(=O)NCC2(N3CCCCC3)CCCCC2)cc1 | inactive: 0.93% |
| c1ccc(CN2CCC(Nc3ccccc3)CC2)cc1 | inactive: 1.48% |
| O=C(NCC1(N2CCCCC2)CCCCC1)c1cccc([N+](=O)[O-])c1 | inactive: -0.13% |
| N#CC1(Nc2ccccc2)CCN(CCc2ccccc2)CC1 | inactive: -0.4% |
| CN1CCN(CCOC(=O)C(O)(c2ccccc2)c2ccccc2)CC1 | inactive: 1.17% |
| COc1ccc(NC2CCN(C(=O)OC(C)(C)C)CC2)cc1 | inactive: -1.23% |
| O=C(NCC1(N2CCOCC2)CCCCC1)c1cc(=O)[nH]c2ccccc12 | inactive: -1.25% |
| COc1ccc(CN(CCCl)CCCl)cc1Cl | inactive: -0.6% |
| CN(C)c1cccc(C(=O)NCC2(N3CCCCC3)CCCCC2)c1 | inactive: 0% |
| CC(C)c1ccc(NC2CCN(C(=O)OC(C)(C)C)CC2)cc1 | inactive: 0.69% |
| COc1ccc(C(=O)NCC2(N3CCCCC3)CCCCC2)c(OC)c1OC | inactive: 0.76% |
| CCOC(=O)N1CCC(Nc2ccc(OC)cc2)CC1 | inactive: 3.65% |
| O=C(OC1CN2CCC1CC2)C1c2ccccc2Oc2ccccc21 (stereo not given) | inactive: 0.67% |
| O=C(NCC1(N2CCOCC2)CCCCC1)c1cc2ccccc2o1 | inactive: -1% |
| COc1ccc(NC2CCN(CCc3ccccc3)CC2)c(OC)c1 | inactive: 1.72% |
